Source: patent US7364881B1, “Biological process for the conversion of nitroarenes to ortho-aminophenols using recombinant E. coli strains” (dated 2008)

Sequences of proteins named here, by UniProt entry; tags and fusion partners are left off. A change or cut given only in a name is not applied to a line headed by its entry. Residues count along the entry.
UniProt Q6DLR9, 2-227 limits assumed: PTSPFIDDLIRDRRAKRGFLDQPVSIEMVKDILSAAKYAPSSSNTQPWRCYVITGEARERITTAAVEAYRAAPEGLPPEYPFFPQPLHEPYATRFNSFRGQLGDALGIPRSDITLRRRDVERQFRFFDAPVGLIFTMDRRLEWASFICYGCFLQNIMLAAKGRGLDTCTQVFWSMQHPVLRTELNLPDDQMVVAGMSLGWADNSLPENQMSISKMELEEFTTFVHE
UniProt Q01234: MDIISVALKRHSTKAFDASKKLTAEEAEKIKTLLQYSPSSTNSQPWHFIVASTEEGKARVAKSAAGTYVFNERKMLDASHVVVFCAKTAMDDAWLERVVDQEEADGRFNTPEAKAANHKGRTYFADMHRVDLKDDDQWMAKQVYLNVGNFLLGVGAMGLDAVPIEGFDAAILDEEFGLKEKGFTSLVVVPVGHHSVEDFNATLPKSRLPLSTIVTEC

Columns and labels:
NB nitroreductase (NbzA) [1] = target: T1, NB nitroreductase (NbzA) (Ectopseudomonas oleovorans, UniProt Q6DLR9); experiment: Reductase activity in cell extracts (initial rate of NADPH disappearance), NbzA expressed in E. coli JS995; details: averages of duplicates, deviation <10%
[2] = target: E. cloacae nitroreductase (Nfs1) (Enterobacter cloacae, UniProt Q01234); experiment: Reductase activity in cell extracts (initial rate of NADPH disappearance), Nfs1 expressed in E. coli JS996; details: averages of duplicates, deviation <10%
[3] = system: whole cells of E. coli strain JS995; experiment: Whole-cell biotransformation by strain JS995
[4] = system: whole cells of E. coli strain JS996; experiment: Whole-cell biotransformation by strain JS996; details: for Rate of substrate transformation: resting IPTG-induced JS996 cells, A600 2, pH 7.0, 37° C., initial 10 min of reaction
[5] = system: host strains carrying only the vectors; experiment: Nitroreductase activity in extracts of host strains carrying only the vectors; details: for Nitroreductase activity in extracts of induced host strains carrying only the vectors: induced cells of host strains
[6] = Stability of the aminophenol in solution; details: neutral solution at 4° C.
NB nitroreductase (NbzA) [7] = target: T1, NB nitroreductase (NbzA); details: wild-type JS45, NB as the substrate; cited from earlier work
[8] = strain JS996, 30° C., 100 μM NB, pH 8, 1% glucose, initial 10 min
[9] = strain JS995, 30° C., 100 μM NB, pH 8, 1% glucose, initial 10 min

| Compound | Specific activity of recombinant nitroreductase NbzA in cell extracts (NB nitroreductase (NbzA) [1]) | Specific activity of recombinant nitroreductase Nfs1 in cell extracts [2] | also measured |
| --- | --- | --- | --- |
| 4-Nitroacetophenone | 1.7 μmol of NADPH oxidized min^−1 mg^−1 protein | 0.9 μmol of NADPH oxidized min^−1 mg^−1 protein |  |
| 3-Nitroacetophenone | 2.1 μmol of NADPH oxidized min^−1 mg^−1 protein | 0.2 μmol of NADPH oxidized min^−1 mg^−1 protein | Transformation of 3NAP to a single product ([3]; strain JS995 whole cells, pH 8.0, 1% glucose, FIG. 2b): very rapidly |
| Nc1ccccc1O |  |  | Specific activity for production of 2AP [4, 8]: 5.0 nmol min^−1 mg^−1 protein; Specific activity for production of 2AP [3, 9]: 12.5 nmol min^−1 mg^−1 protein |
| Cc1ccc([N+](=O)[O-])cc1 | 0.1 μmol of NADPH oxidized min^−1 mg^−1 protein | <0.1 μmol of NADPH oxidized min^−1 mg^−1 protein |  |
| O=[N+]([O-])c1cccc([N+](=O)[O-])c1 | 2.9 μmol of NADPH oxidized min^−1 mg^−1 protein | 5.1 μmol of NADPH oxidized min^−1 mg^−1 protein | Nitroreductase activity in the control host strain containing vector alone ([5]; control host strain, vector alone): 0.10 U mg^−1 protein |
| O=C(O)c1ccc([N+](=O)[O-])cc1 | 0.7 μmol of NADPH oxidized min^−1 mg^−1 protein | 0.1 μmol of NADPH oxidized min^−1 mg^−1 protein |  |
| Cc1cccc([N+](=O)[O-])c1 | 1.9 μmol of NADPH oxidized min^−1 mg^−1 protein | 0.1 μmol of NADPH oxidized min^−1 mg^−1 protein | Rate of substrate transformation [4]: 1.62 nmol min^−1 mg^−1 protein |
| 4-Nitrobiphenyl ether | 0.8 μmol of NADPH oxidized min^−1 mg^−1 protein | 0.2 μmol of NADPH oxidized min^−1 mg^−1 protein | Rate of substrate transformation [4]: 1.13 nmol min^−1 mg^−1 protein |
| O=[N+]([O-])c1cccc2ccccc12 |  |  | Rate of substrate transformation [4]: 0.93 nmol min^−1 mg^−1 protein |
| O=C(O)c1ccccc1[N+](=O)[O-] | 0.3 μmol of NADPH oxidized min^−1 mg^−1 protein | <0.1 μmol of NADPH oxidized min^−1 mg^−1 protein |  |
| Cc1ccccc1[N+](=O)[O-] | 1.4 μmol of NADPH oxidized min^−1 mg^−1 protein | <0.1 μmol of NADPH oxidized min^−1 mg^−1 protein | Rate of substrate transformation [4]: 0.47 nmol min^−1 mg^−1 protein |
| O=Cc1cccc([N+](=O)[O-])c1 | 2.0 μmol of NADPH oxidized min^−1 mg^−1 protein | 0.3 μmol of NADPH oxidized min^−1 mg^−1 protein |  |
| O=C(O)c1cccc([N+](=O)[O-])c1 | 0.3 μmol of NADPH oxidized min^−1 mg^−1 protein | 0.1 μmol of NADPH oxidized min^−1 mg^−1 protein |  |
| 2-Amino-3-hydroxyacetophenone |  |  | Stability in solution (time stable) [6]: more than 8 months |
| O=C(C[N+](=O)[O-])c1ccccc1 | 1.6 μmol of NADPH oxidized min^−1 mg^−1 protein | 0.1 μmol of NADPH oxidized min^−1 mg^−1 protein | Transformation rate ([3]; strain JS995, absence of glucose): very low; Added substrate transformed ([3]; strain JS995, absence of glucose, end of 110 min of incubation): 50; Specific activity for the transformation of 2NAP ([3]; strain JS995, presence of glucose, initial 10 min of reaction): 17.6 nmol min^−1 mg^−1 protein; Nitroreductase activity in extracts of induced host strains carrying only the vectors [5]: No nitroreductase activity |
| O=Cc1ccccc1[N+](=O)[O-] | 2.3 μmol of NADPH oxidized min^−1 mg^−1 protein | 0.7 μmol of NADPH oxidized min^−1 mg^−1 protein |  |
| O=Cc1ccc([N+](=O)[O-])cc1 | 0.1 μmol of NADPH oxidized min^−1 mg^−1 protein | <0.1 μmol of NADPH oxidized min^−1 mg^−1 protein |  |
| O=[N+]([O-])c1ccccc1 | 2.5 μmol of NADPH oxidized min^−1 mg^−1 protein | 0.1 μmol of NADPH oxidized min^−1 mg^−1 protein | Specific activity of NB nitroreductase reported previously (NB nitroreductase (NbzA) [7]): 2.4 U mg^−1 protein; Rate of substrate transformation [4]: 2.0 nmol min^−1 mg^−1 protein; Specific activity for transformation of NB [4, 8]: 5.4 nmol min^−1 mg^−1 protein; Specific activity for transformation of NB [3, 9]: 13.4 nmol min^−1 mg^−1 protein; Nitroreductase activity in extracts of induced host strains carrying only the vectors [5]: No nitroreductase activity |
